Results reported in article PMC11671526, “β-caryophyllene sensitizes hepatocellular carcinoma cells to chemotherapeutics and inhibits cell malignancy through targeting MAPK signaling pathway” (Frontiers in Pharmacology, 2024).

Tests used:
Experiment in all cases: CCK8 cell viability assay
Format in all cases: cell-based, human
[1] = test system: SMMC-7721 cells; settings: SMMC-7721, cotreatment with 150 μM BCP vs DOX or DDP alone
Method: (§1) Cell viability assay using the CCK8 reagent (Bimake, Shanghai, China) was conducted according to the manufacturer’s instructions. The cell proliferation data were used to calculate the cell viability. Briefly, HepG2, SMMC-7721, and HL-7702 cells with a density of 5 × 10^3 cells/well were seeded into each well of 96-well plates and incubated overnight. BCP stock solution (400 mM) was prepared in ethanol, and DOX and DDP stock solutions (20 mM) were individually prepared in DMSO. […] The dosages of DOX and DDP were previously determined ([Jehan et al., 2020]; [Farooq et al., 2023]). […] After 48 h, 10 µL of CCK8 reagent was added to each well, followed by 2 h incubation at 37°C and measurement of absorbance at 450 nm using a microplate reader (Molecular Devices, LLC.). […] The antiproliferative effects of BCP in combination with DOX and DDP were evaluated by the combination index (CI) using the formula: […] The effects of the combinatorial inhibition were visualized by isobologram analyses ([Tallarida, 2001]). The IC50 values of each cell line were arranged for the isobologram analysis so that the IC50 of DOX represents a point on the X-axis and the IC50 of BCP represents a point on the Y-axis. A line was drawn to link the two IC50 points. Each dot in the isobologram represented an IC50 value of a BCP and DOX combination. The dots above, on, or below the line indicate the “antagonistic,” “additive” and “synergistic” effects, respectively. The same method was used to obtain the CI value for the cotreatment of BCP and DDP.

[2] = test system: HL-7702 normal liver cells
Method: as §1

[3] = test system: HepG2 cells; settings: HepG2, cotreatment with 150 μM BCP vs DOX or DDP alone
Method: as §1

COc1cccc2c1C(=O)c1c(O)c3c(c(O)c1C2=O)C[C@@](O)(C(=O)CO)C[C@@H]3O[C@H]1C[C@H](N)[C@H](O)[C@H](C)O1 [DOX, doxorubicin]
fold lower IC50 in cotreatment than in treatment alone [1]: over 9 fold
combination index (CI) ([2]; HL-7702, cotreatment with 75 μM BCP): 1.01
fold reduction of IC50 in cotreatment from individual treatment ([2]; HL-7702, cotreatment with 150 μM BCP vs DOX or DDP alone): less than 1.5 fold
fold lower IC50 in cotreatment than in treatment alone [3]: over 9 fold
